1 substance from patent publication US9561289B2, “Peptides for inhibiting tumor growth” (OSPEDALE SAN RAFFAELE SRL, priority 2012, dated 2017) can be followed below.

For this experiment, the system named is EA.hy926 endothelial cells. Nature of the experiment: Endothelial cell adhesion to vitronectin-coated plates. Format: cell-based, human. The settings on record: EA.hy926, substance added to supernatant. The procedure: Endothelial cell (EA.hy926) adhesion to microtiter plates coated with human vitronectin was carried out as described ([25]). IsoDGR#1 and isoDGR#3 were added to the supernatant during cell adhesion. Data from a representative experiment of three independent experiments is shown. Mean±S.E (n=3).
(A) Endothelial EA.hy926 cell were mixed with isoDGR#1-HSA (9:1) and linker-HSA (*HSA), left to adhere for 2 h to microtiter plates coated with vitronectin and stained with crystal violet as described. Cell adhesion was quantified by spectrophotometric measurement (A570 nm).

“*HSA(0:1): sulfo-SMCC-activated albumin lacking the peptide [reference compound]”: the “inhibition of endothelial cell adhesion to vitronectin” value is “completely inactive”.
